According to patent publication US7361680B2, “Indole compounds useful for the treatment of cancer” (The Regents of the University of California, priority 1999, dated 2008):

Test system: primary CLL cells
Assay: Activity screening, MTT viability, primary CLL cells
Assay type: cell-based
Conditions: CLL cell, 72 h, three days; quantity not given; repeat runs (1st), (2nd)
Experimental: They were plated in 96-well plates at 100,000 cells/well. Titrated concentrations of the compound to be tested were added to the culture medium. The cells were incubated three days at 37° C., 5% CO2. Viability of the cells was assayed by standard MTT assay. Each drug concentration was done in duplicate.

Structure (SMILES) | pEC50
CCc1cccc2c3c([nH]c12)C(CC)(CC(C)=O)OCC3 (stereo not drawn) [Compound 13, 1-(1,8-Diethyl-1,3,4,9-tetrahydropyrano[3,4-b]indol-1-yl)-propan-2-one] | 3.16
CCc1cccc2c3c([nH]c12)C(CC)(CCOC)OCC3 (stereo not drawn) [Compound 2, 1,8-Diethyl-1-(2-methoxyethyl)-1,3,4,9-tetrahydropyrano[3,4-b]indole] | < 3.00
CCc1cccc2c3c([nH]c12)C(CC)(CCO)OCC3 (stereo not drawn) [Compound 1, 2-(1,8-Diethyl-1,3,4,9-tetrahydropyrano[3,4-b]indol-1-yl)-ethanol] | 3.75
CCc1cccc2c3c([nH]c12)C(CC)(CC=N)OCC3 (stereo not drawn) [Compound 7, 2-(1,8-Diethyl-1,3,4,9-tetrahydropyrano[3,4-b]indol-yl)-ethylideneamine] | 3.15
CCc1cccc2c3c([nH]c12)[C@@](CC)(CC(=O)O)OCC3 [R-etodolac] | 3.76

Same assay, conditions: three days; quantity not given; repeat runs (1st), (2nd)

Structure (SMILES) | pEC50
CCc1cccc2c3c([nH]c12)[C@@](CC)(CC(=O)O)OCC3 [R-etodolac] | 3.58

pEC50: −log10 of the molar value.
